According to PubChem BioAssay:
This is one part of the list. Potency and affinity values are given separately. Results filed as inconclusive are left out. Active and inactive are the calls of the source. How the calls were made is not given here.

Assay: Vibrio cholerae quorum sensing activators, luminescence (AID 686977)
Conditions: V. cholerae quorum sensing reporter, 6 h, stronger effect = higher value; dose 50, dose unit µM unless noted

SMILES	luminescence
C/C1=C2N=C(/C=C3N=C(/C(C)=C4\[N-][C@@](C)([C@@H]5N=C1[C@](C)(CCC(=O)NC[C@@H](C)OP(=O)([O-])O[C@H]1[C@@H](O)[C@@H](n6cnc7cc(C)c(C)cc76)O[C@@H]1CO)[C@H]5CC(N)=O)[C@@](C)(CC(N)=O)[C@@H]4CCC(N)=O)[C@@](C)(CC(N)=O)[C@@H]\3CCC(N)=O)C(C)(C)[C@@H]/2CCC(N)=O.[C-]#N.[Co+3]	inactive: 40 [dose 10, dose unit µg/mL]
CP(=O)(Nc1ccccn1)Oc1ccccc1 (configuration not stated)	inactive: 40
